Experimental data published in patent publication US7964219B2, “Pharmaceutical compositions for controlled release delivery of biologically active compounds” (QPS, LLC, priority 2004, dated 2011).
Where two headings read alike, the source gives them in different places. Blank lines part the entries; values can stand above or below the substance they belong to.

What was measured:
[1] = Stability of octreotide in injectable formulations at room temperature by HPLC (Example 12)
Description: Injectable formulations of octreotide were prepared by dispersing octreotide in polymer solution in an appropriate solvent. […] The mixture was thoroughly mixed until a uniform suspension or solution was obtained. Six injectable formulations were prepared as shown below.
The stability of octreotide in the above injectable formulations at room temperature was monitored by HPLC and the results are shown in the table below.

[2] = not given; remark: listed apart in the source

- Solubility (DMSO): Soluble
- Solubility (PBS (pH 7.4)): 11.2 µg/mL
Substance: doxorubicin phytate

Substance: octreotide phytate
- Stability of octreotide (degradation) ([1]; PLGA solutions in NMP, room temperature over time): slight degradation of octreotide
- Stability of octreotide (degradation and/or acylation) ([1]; PLGA solutions in mPEG and PEGDM, room temperature): completely prevented the degradation and/or acylation of octreotide

- Solubility ([2]; Acetate Buffer (pH 4.5)): 2700 µg/mL
- Solubility ([2]; PBS (pH 7.4)): 7500 µg/mL
Substance: tetracaine phytate
